Experimental data taken from PMC8341910, “Structural and biophysical insights into the mode of covalent binding of rationally designed potent BMX inhibitors” (RSC Chemical Biology, 2020).
“And” between values parts separate entries of the source, which are not always exact repeats. Equal values may be shown once.

Chains of the proteins cited; added tags and fusions are not shown.
UniProt Q06187, whole entry, species assumed: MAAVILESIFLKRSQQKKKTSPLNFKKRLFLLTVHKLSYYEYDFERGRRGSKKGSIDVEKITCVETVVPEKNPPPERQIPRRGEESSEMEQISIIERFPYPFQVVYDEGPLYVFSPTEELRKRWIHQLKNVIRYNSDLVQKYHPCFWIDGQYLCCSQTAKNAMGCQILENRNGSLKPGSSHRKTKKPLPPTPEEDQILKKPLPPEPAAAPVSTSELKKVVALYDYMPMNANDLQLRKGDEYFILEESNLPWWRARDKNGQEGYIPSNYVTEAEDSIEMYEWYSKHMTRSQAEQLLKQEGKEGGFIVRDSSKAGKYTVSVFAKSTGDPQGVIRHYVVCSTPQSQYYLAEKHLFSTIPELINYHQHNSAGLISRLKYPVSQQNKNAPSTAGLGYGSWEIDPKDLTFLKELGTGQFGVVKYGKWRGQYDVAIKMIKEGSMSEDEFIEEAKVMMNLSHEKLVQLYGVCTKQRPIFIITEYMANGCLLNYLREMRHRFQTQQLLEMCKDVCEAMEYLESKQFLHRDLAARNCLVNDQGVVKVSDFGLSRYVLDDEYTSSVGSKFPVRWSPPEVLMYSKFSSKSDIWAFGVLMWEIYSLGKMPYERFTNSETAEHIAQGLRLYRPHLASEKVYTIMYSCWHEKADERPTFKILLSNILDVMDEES

What was measured:
[1] = biological target: T1, BMX (Homo sapiens, UniProt P51813); test: Kinetic characterization with ADP-Glo kinase assay; format: biochemical; set-up: purchased Promega Corporation (USA) V4512; conditions: duplicate, mean ± S.D.
T1 sequence (P51813 1-675): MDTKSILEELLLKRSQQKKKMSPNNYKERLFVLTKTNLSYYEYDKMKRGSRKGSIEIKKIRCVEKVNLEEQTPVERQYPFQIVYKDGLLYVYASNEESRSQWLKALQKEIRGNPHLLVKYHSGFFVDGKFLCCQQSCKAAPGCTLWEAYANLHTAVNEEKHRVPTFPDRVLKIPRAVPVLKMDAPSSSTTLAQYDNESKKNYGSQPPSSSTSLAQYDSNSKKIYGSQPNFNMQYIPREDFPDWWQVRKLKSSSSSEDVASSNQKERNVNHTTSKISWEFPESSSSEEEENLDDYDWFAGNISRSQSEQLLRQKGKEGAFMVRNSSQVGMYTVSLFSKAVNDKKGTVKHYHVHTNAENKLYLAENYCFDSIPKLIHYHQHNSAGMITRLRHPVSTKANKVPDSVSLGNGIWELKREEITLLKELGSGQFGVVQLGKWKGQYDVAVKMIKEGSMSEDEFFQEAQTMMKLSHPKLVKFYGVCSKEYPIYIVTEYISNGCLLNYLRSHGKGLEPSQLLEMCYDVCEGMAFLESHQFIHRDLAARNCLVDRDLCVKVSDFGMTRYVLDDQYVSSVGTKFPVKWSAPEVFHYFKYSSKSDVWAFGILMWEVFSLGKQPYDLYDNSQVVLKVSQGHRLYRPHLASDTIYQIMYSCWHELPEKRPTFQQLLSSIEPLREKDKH
Source text: The inactivation of BMX occurs in a two-step process that is governed by two parameters: the affinity of the initial non-covalent binding, KI, and the rate of the subsequent covalent bond-forming reaction with the thiol of the cysteine residue, kinact. […]. […] Thus, taking into account that all the analogues have the same Michael acceptor moiety, the enhanced activity must be a result of the structural modifications introduced in the scaffold. […]
Kinetic characterization using an ADP-GLOTM kinase assay:
The BMX enzyme system (Catalog. V4512) and the ADP-GloTM kinase assay were purchased from Promega Corporation (USA). In each kinase reaction, the concentration of BMX was set to 4.5 ng/µL. The peptide substrate Poly (4:1 Glu, Tyr) and ATP concentrations were set to 0.25 mg/mL and 50 µM, respectively. BMX was pre-incubated with different inhibitor concentrations (10-fold serial dilutions, starting at 1 mM), over different time periods (2 - 60 min), before initiating the kinase reactions. […] Then, 10 µL of kinase detection reagent was added into the wells and incubated for 30 min to produce a luminescence signal. The signal was measured using an Infinite M200 […]
observed rate constants for inhibition (kobs), at different inhibitor concentrations, were determined from the slope of a semi-logarithmic plot of inhibition versus time, and re-plotted against inhibitor concentration (nM). […]

[2] = biological target: T1, BMX; test: BMX biochemical activity assay (HTRF, phosphorylation of a biotinylated peptide)
[3] = biological target: T2, NanoLuc®-BMX fusion vector in HEK293 cells (Homo sapiens, UniProt P51813); test: NanoBRET TE intracellular kinase assay; format: cell-based; conditions: NanoBRET IC50 ratio
T2 sequence (P51813 1-675): T1 sequence (P51813 1-675)

[4] = biological target: T3, His6-hsBMX (Homo sapiens, UniProt P51813); test: Surface plasmon resonance (SPR); format: binding
T3 construct: Crystallization, data collection, and structure determination of BMX catalytic domain in; made in house; host or cells: Sf-9 insect cells

[5] = biological target: BTK (Homo sapiens, UniProt Q06187); test: BTK biochemical activity assay (radiometric, KinaseProfiler); set-up: purchased Eurofins DiscoverX KinaseProfiler (contract assay)

Question: Which results are given for `C=CC(=O)Nc1cc(C)cc(-n2c(=O)ccc3cnc4cc(-c5ccc(NS(C)(=O)=O)cc5)ccc4c32)c1` [JS25]?
Answer: k inact [1]: 0.378 min⁻¹ and 0.378 ± 0.034 min⁻¹; LE (BMX) [2]: 0.30; LipE (BMX) [2]: 4.43; inhibitory capacity relative to BMX-IN-1 (times greater) [3]: 10 times; koff [4]: < 0.0001 s⁻¹; kon [4]: 54000 M⁻¹ s⁻¹; BTK potency gain (fold) relative to BMX-IN-1 [5]: 62 fold; LE (BTK) ([5]; ligand efficiency): 0.30; LipE (BTK) ([5]; lipophilic efficiency): 4.22
